The target in this assay is T1, BuChE (human, purified from) (Homo sapiens, UniProt P06276).
T1 construct: BuChE (human, purified from erythrocytes); from tissue
Kind of assay: In vitro inhibition of BuChE, modified Ellman procedure. Format: biochemical. The note with it: purified human butyrylcholinesterase (plasma); mean of two or three independent experiments; read-out: hBuChE IC50.

Sequences of proteins named here, by UniProt entry; tags and fusion partners are left off. Residues count along the entry.
UniProt P06276, 29-602: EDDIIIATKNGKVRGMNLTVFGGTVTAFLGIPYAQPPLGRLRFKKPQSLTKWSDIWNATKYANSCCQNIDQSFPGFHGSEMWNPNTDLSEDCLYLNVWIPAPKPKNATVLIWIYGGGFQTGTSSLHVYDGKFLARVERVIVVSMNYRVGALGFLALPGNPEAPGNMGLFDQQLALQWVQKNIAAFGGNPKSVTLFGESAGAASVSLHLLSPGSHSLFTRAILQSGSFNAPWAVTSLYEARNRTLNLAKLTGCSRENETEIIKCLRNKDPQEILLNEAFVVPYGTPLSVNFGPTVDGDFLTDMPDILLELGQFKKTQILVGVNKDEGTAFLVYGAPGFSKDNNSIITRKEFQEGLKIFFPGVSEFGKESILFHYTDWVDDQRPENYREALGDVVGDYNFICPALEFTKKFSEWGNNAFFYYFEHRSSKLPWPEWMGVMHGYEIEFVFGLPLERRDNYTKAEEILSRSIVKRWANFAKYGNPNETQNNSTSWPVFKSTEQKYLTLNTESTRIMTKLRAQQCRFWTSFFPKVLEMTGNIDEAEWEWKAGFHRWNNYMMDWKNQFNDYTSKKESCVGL

Each structure is given as a SMILES string.

On to `CCN(C)C(=O)Oc1cccc([C@H](C)N(C)C)c1` [Rivastigmine, rivastigmine, reference compound], for which the IC50 came to 179 nM.

Values taken from patent publication US20100256229A1, “COMPOSITIONS OF CHOLINESTERASE INHIBITORS” (priority 2009, published 2010).
